{"source": "patent US7413873", "key": {"full length TCF1": {"biological_target": "full length TCF1", "assay": "cell-based or functional assay"}, "full length TCF4": {"biological_target": "full length TCF4", "assay": "cell-based or functional assay"}}}
{"substance": "β-catenin (wild type)", "values": [{"measurement": "fold activation of LEF1 promoter luciferase reporter over 5 replicate experiments", "setting": "full length TCF1", "result": 8, "unit": "fold"}, {"measurement": "activation of luciferase reporter gene driven by the LEF1 promoter (-672, +305), co-transfection in 2017 T lymphocytes", "setting": "full length TCF4", "result": 4.6, "unit": "fold"}, {"measurement": "fold activation of LEF1 promoter luciferase reporter over 5 replicate experiments", "setting": "full length TCF4", "result": 5.6, "unit": "fold"}]}
